Among the data in publication PMC10009755, “Discovery and Characterization of BAY-805, a Potent and Selective Inhibitor of Ubiquitin-Specific Protease USP21” (Journal of Medicinal Chemistry, 2023) are remaining activity values, retold here.

Chains of the proteins cited; added tags and fusions are not shown. Lines headed by an entry give the natural chain unless they say otherwise; changes in a name come on top.
UniProt P09936: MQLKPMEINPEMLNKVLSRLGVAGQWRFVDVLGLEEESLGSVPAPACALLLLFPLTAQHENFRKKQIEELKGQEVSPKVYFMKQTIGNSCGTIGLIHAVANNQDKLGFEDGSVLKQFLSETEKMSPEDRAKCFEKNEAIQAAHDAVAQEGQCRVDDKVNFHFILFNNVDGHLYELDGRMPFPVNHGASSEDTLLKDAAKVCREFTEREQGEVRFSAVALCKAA

Each structure is given as a SMILES string.

In this experiment the target is UCHL1 (Homo sapiens, UniProt P09936). The experiment in a line: biochemical. Conditions: read-out: Activity (% Control).

On to `CC(C)C[C@H](NC(=O)C1(C(F)(F)F)CCCCC1)C(=O)Nc1nnc(Cc2ccc(C#N)cc2)s1` [Compound 22, CC(C)C[C@H](NC(=O)C1(CCCCC1)C(F)(F)F)C(=O)Nc2nnc(Cc3ccc(cc3)C#N)s2], for which the remaining activity at 1 µM was found to be 100% and the remaining activity at 10 µM was 103%.
